## Membrane permeability of cyclic peptides

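Conditions beyond the assay type are not listed; see the original paper. Other peptides of the study may be missing here. Peptides that the database sets to -10, its floor, are left out.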

PAMPA measures passive passage through an artificial lipid membrane.
Permeability is in 10^-6 cm/s, converted from the database's log10 values; higher is more permeable.

compound,PAMPA (10^-6 cm/s)
CC(C)C[C@@H]1C(=O)N2CCC[C@@H]2C(=O)N(Cc2ccccc2)CC(=O)N[C@@H](Cc2ccccc2)C(=O)N[C@H](C)C(=O)N[C@H](CC(C)C)C(=O)N1C,0.43
CCCN1CC(=O)N(C)[C@@H](CC(C)C)C(=O)N[C@@H](CC(C)C)C(=O)N2CCC[C@@H]2C(=O)N(C)[C@H](CC(C)C)C(=O)N[C@@H](Cc2ccccc2)C(=O)N2CCC[C@H]2C1=O,6.9
CC(C)C[C@@H]1NC(=O)[C@H]2CCCN2C(=O)[C@@H](CC(C)C)N(C)C(=O)[C@H](CC(C)C)NC(=O)[C@@H](C)N(C)C(=O)[C@H](Cc2ccccc2)NC1=O,3.9
CC(C)C[C@@H]1NC(=O)[C@H]2CCCN2C(=O)CN(Cc2ccccc2)C(=O)[C@H](CC(C)C)NC(=O)[C@@H](C)N(C)C(=O)[C@H](Cc2ccccc2)NC1=O,0.35
CC(C)C[C@@H]1C(=O)N[C@H](CC(C)C)C(=O)N2CCC[C@H]2C(=O)N(C)[C@@H](CC(C)C)C(=O)N[C@@H](Cc2ccccc2)C(=O)N2CCC[C@H]2C(=O)N(C)[C@@H](C)C(=O)N1C,9.3
CCCN1CC(=O)N[C@H](CC(C)C)C(=O)N[C@@H](Cc2ccccc2)CC(=O)N2CCC[C@H]2C(=O)N(C)[C@H](CC(C)C)C(=O)N[C@@H](Cc2ccccc2)C(=O)N2CCC[C@H]2C1=O,1.7
CC(C)C[C@@H]1C(=O)N2CCC[C@H]2C(=O)N(Cc2ccccc2)CC(=O)N[C@@H](Cc2ccccc2)C(=O)N2CCC[C@H]2C(=O)N[C@H](C)C(=O)N(C)[C@@H](CC(C)C)C(=O)N1C,4.4
CC(C)C[C@H]1C(=O)N[C@@H](Cc2ccccc2)C(=O)N[C@H](C)C(=O)N(C)[C@@H](CC(C)C)C(=O)N(C)[C@@H](CC(C)C)C(=O)N2CCC[C@@H]2C(=O)N1C,10
CC(C)C[C@@H]1C(=O)N2CCC[C@@H]2C(=O)N(Cc2ccccc2)CC(=O)N[C@@H](Cc2ccccc2)C(=O)N2CCC[C@@H]2C(=O)N(C)[C@@H](C)C(=O)N(C)[C@H](CC(C)C)C(=O)N1C,1.2
CC(C)C[C@H]1NC(=O)[C@@H](C)NC(=O)[C@H]2CCCN2C(=O)[C@H](Cc2ccccc2)NC(=O)CN(Cc2ccccc2)C(=O)[C@H]2CCCN2C(=O)[C@@H](CC(C)C)NC1=O,0.33
CC(C)C[C@H]1NC(=O)[C@@H](C)N(C)C(=O)[C@@H]2CCCN2C(=O)[C@H](Cc2ccccc2)NC(=O)[C@H](CC(C)C)N(C)C(=O)[C@@H]2CCCN2C(=O)C[C@H](Cc2ccccc2)NC1=O,1.7
CCCN1CC(=O)N[C@@H](CC(C)C)C(=O)N(C)[C@H](CC(C)C)C(=O)N2CCC[C@@H]2C(=O)N(C)[C@@H](CC(C)C)C(=O)N[C@@H](Cc2ccccc2)C(=O)N2CCC[C@H]2C1=O,1.9
CC(C)C[C@@H]1C(=O)N2CCC[C@@H]2C(=O)N[C@H](CC(C)C)C(=O)N[C@@H](Cc2ccccc2)C(=O)N2CCC[C@H]2C(=O)N[C@@H](Cc2ccccc2)CC(=O)N[C@H](CC(C)C)C(=O)N1C,3.3
CC(C)C[C@@H]1NC(=O)[C@@H]2CCCN2C(=O)[C@H](CC(C)C)NC(=O)[C@H](CC(C)C)N(C)C(=O)[C@H](C)N(C)C(=O)[C@H]2CCCN2C(=O)[C@H](Cc2ccccc2)NC1=O,0.55
CC(C)C[C@H]1C(=O)N(C)[C@@H](CC(C)C)C(=O)N2CCC[C@H]2C(=O)N(C)[C@@H](CC(C)C)C(=O)N[C@@H](Cc2ccccc2)C(=O)N2CCC[C@@H]2C(=O)N(C)[C@H](C)C(=O)N1C,5.4
CC(C)C[C@@H]1C(=O)N[C@@H](Cc2ccccc2)C(=O)N[C@@H](C)C(=O)N[C@H](CC(C)C)C(=O)N(C)[C@@H](CC(C)C)C(=O)N2CCC[C@H]2C(=O)N1C,1.9
CC(C)C[C@@H]1NC(=O)[C@@H]2CCCN2C(=O)CN(Cc2ccccc2)C(=O)[C@@H](CC(C)C)N(C)C(=O)C[C@H](Cc2ccccc2)NC(=O)[C@H]2CCCN2C(=O)[C@H](Cc2ccccc2)NC1=O,1.6
CC(C)C[C@@H]1NC(=O)[C@H](C)N(C)C(=O)[C@H]2CCCN2C(=O)[C@H](Cc2ccccc2)NC(=O)[C@H](CC(C)C)N(C)C(=O)[C@@H]2CCCN2C(=O)[C@@H](CC(C)C)N(C)C1=O,6.5
CC(C)C[C@@H]1C(=O)N[C@@H](Cc2ccccc2)C(=O)N[C@H](C)C(=O)N[C@H](CC(C)C)C(=O)N[C@H](CC(C)C)C(=O)N2CCC[C@@H]2C(=O)N1C,0.18
CC(C)C[C@@H]1NC(=O)C[C@H](Cc2ccccc2)NC(=O)[C@H]2CCCN2C(=O)[C@H](Cc2ccccc2)NC(=O)[C@@H](CC(C)C)N(C)C(=O)[C@@H]2CCCN2C(=O)[C@@H](CC(C)C)N(C)C1=O,3.8
CC(C)C[C@@H]1C(=O)N[C@@H](Cc2ccccc2)C(=O)N[C@@H](Cc2ccccc2)CC(=O)N[C@H](CC(C)C)C(=O)N[C@H](CC(C)C)C(=O)N2CCC[C@H]2C(=O)N1C,4.4

A selection of 2 entries from above:

compound,PAMPA (10^-6 cm/s)
CCCN1CC(=O)N[C@H](CC(C)C)C(=O)N[C@@H](Cc2ccccc2)CC(=O)N2CCC[C@H]2C(=O)N(C)[C@H](CC(C)C)C(=O)N[C@@H](Cc2ccccc2)C(=O)N2CCC[C@H]2C1=O,1.7
CCCN1CC(=O)N(C)[C@@H](CC(C)C)C(=O)N[C@@H](CC(C)C)C(=O)N2CCC[C@@H]2C(=O)N(C)[C@H](CC(C)C)C(=O)N[C@@H](Cc2ccccc2)C(=O)N2CCC[C@H]2C1=O,6.9

Source: CycPeptMPDB (Li et al. 2023), which took these values from Townsend et al. 2020, doi:10.26434/chemrxiv.13335941.v1.